Results from US20060189530A1 (Bayer Corporation, priority 1996, published 2006).

Chains of the proteins cited; added tags and fusions are not shown. Lines headed by an entry give the natural chain unless they say otherwise; changes in a name come on top. Residues count along the entry.
UniProt P21555, whole entry: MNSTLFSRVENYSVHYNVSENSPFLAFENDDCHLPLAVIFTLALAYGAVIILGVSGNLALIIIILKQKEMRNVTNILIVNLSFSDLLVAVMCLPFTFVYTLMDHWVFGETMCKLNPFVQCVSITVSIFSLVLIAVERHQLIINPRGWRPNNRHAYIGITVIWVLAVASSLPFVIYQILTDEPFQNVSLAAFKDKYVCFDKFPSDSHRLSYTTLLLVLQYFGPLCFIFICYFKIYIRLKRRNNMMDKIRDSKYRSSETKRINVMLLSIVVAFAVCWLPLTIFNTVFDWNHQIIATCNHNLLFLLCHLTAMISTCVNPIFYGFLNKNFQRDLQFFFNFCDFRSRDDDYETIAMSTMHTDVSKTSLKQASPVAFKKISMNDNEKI
UniProt Q63447: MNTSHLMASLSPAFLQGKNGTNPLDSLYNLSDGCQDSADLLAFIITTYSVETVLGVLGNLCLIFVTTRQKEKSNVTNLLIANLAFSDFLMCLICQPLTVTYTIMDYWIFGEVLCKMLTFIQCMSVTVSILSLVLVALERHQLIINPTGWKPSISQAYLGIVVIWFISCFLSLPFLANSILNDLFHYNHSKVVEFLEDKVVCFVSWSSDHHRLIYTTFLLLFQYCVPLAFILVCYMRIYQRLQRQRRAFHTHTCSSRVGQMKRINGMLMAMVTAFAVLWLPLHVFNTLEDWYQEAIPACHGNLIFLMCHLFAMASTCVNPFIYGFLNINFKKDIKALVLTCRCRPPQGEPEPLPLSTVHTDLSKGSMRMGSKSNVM
UniProt Q9ERC0, 1-381: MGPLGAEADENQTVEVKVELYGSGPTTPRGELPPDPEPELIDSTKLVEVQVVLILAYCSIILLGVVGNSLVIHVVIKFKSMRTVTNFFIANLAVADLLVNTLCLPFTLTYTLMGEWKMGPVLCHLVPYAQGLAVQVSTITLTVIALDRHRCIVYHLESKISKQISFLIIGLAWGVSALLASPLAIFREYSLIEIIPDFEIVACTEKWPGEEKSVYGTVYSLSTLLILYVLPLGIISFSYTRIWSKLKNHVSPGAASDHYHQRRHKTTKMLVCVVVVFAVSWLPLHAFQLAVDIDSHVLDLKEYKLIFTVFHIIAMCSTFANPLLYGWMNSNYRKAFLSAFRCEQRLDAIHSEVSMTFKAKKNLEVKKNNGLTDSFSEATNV

Key:
[1] = target: Rat Y1 (clone) (Rattus norvegicus, UniProt P21555); test: [125I]PYY binding assay for rat Y1 receptor; conditions: read-out: IC50, Rat Y1 (clone); 50 pM [125I]PYY
[2] = target: Rat Y4/PP1 (clone) (Rattus norvegicus, UniProt Q63447); test: rat [125I]PP binding assay for rat Y4/PP1 receptor; conditions: read-out: IC50, Rat Y4/PP1 (clone); 50 pM rat [125I]PP
[3] = target: T1, Rat Y5 (Y861) (Rattus norvegicus, UniProt Q63634); test: [125I]PYY binding, rat Y5 (Y861), IC50 of Table 3; conditions: read-out: IC50, Rat Y5 (Y861)
T1 construct: expressed in transfected cells
T1 sequence (Q63634 1-445): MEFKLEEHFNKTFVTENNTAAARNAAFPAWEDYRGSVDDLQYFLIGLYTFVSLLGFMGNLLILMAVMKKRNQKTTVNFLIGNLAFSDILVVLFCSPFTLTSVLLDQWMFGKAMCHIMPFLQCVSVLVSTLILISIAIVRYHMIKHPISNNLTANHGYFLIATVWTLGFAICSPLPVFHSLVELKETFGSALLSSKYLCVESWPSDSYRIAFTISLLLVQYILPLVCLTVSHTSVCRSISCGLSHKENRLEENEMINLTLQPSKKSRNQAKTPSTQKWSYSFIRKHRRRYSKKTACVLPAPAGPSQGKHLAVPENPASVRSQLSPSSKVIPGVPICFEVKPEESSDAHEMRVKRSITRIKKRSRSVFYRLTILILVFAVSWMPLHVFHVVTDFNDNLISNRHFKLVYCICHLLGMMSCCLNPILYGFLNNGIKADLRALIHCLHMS
Text: (§1) All other peptides were purchased from either Peninsula (Belmont, Calif.) or Bachem (Torrance, Calif.).

[4] = target: T2, rat NPY Y5 receptor (Y555 clone) (Rattus norvegicus, UniProt Q63634); test: [125I]PYY competition binding, rat Y5 Y555 clone transiently expressed in COS-7 membranes; conditions: read-out: NPY Y5 binding affinity, RAT Y555 Clone (IC50 values per footnote), transient COS-7 membranes, ± SEM
T2 construct: expressed in transfected cells; host or cells: COS-7 (transient), membranes
T2 sequence (Q63634 1-445): T1 sequence (Q63634 1-445)
Protocol: (§2) The media was removed from each flask of transfected cells, and the cells were washed twice with 20 ml ice-cold phosphate buffered saline.
as §1

[5] = target: Rat Y2 (clone) (Rattus norvegicus, UniProt Q9ERC0); test: [125I]PYY binding assay for rat Y2 receptor; conditions: read-out: IC50, Rat Y2 (clone); 25 pM [125I]PYY
[6] = target: T3, human NPY Y5 receptor (Homo sapiens, UniProt Q15761); test: [125I]PYY competition binding, human Y5 clone transiently expressed in COS-7 membranes; conditions: read-out: NPY Y5 binding affinity Ki, HUMAN Clone, transient COS-7 membranes, ± SEM
T3 construct: containing the full length open reading frame encoding the receptor; expressed in transfected cells
T3 sequence (Q15761 1-445): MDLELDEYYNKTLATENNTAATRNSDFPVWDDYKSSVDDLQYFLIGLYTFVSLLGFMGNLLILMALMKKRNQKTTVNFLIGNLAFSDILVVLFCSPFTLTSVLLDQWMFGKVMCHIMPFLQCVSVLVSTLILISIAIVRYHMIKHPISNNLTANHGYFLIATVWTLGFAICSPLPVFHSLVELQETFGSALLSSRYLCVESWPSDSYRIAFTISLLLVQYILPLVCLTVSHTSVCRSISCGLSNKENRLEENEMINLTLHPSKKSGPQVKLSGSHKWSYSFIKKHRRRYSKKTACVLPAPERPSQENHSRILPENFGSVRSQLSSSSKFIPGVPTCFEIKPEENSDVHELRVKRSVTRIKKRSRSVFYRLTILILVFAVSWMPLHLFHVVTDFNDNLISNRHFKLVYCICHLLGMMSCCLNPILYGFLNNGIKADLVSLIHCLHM
Protocol: as §2, §1

[7] = target: T3, human NPY Y5 receptor; test: [125I]PYY competition binding, stably expressed human Y5 (293.hY5.sb.8); conditions: read-out: Ki, 293.hY5.sb.8, Average ± SEM
Protocol: as §2, §1

[8] = target: T4, rat NPY Y5 receptor (Y861 clone) (Rattus norvegicus, UniProt Q63634); test: [125I]PYY competition binding, stably expressed rat Y5 (293S.Y861.2); set-up: expressed in transfected cells; conditions: read-out: Ki, 293S.Y861.2, Average ± SEM
T4 sequence (Q63634 1-445): T1 sequence (Q63634 1-445)
Protocol: as §2, §1

[9] = target: T5, rat NPY Y5 receptor (6B clone) (Rattus norvegicus, UniProt Q63634, L61P); test: [125I]PYY competition binding, rat Y5 6B clone transiently expressed in COS-7 membranes; conditions: read-out: NPY Y5 binding affinity Ki, RAT 6B Clone, transient COS-7 membranes, ± SEM
T5 construct: expressed in transfected cells; host or cells: COS-7 (transient), membranes
T5 sequence (Q63634 1-445 L61P): T1 sequence (Q63634 1-445) with L61P
Protocol: as §2, §1

[10] = target: T6, human Y5 receptor (Homo sapiens, UniProt Q15761); test: Forskolin-stimulated adenylate cyclase (cAMP), human Y5 stable cells 293.hY5.sb.8; type: cell-based; conditions: read-out: EC50, 293.hY5.sb.8
T6 construct: containing the full length open reading frame encoding the receptor; expressed in transfected cells
T6 sequence (Q15761 1-445): T3 sequence (Q15761 1-445)

[11] = target: T4, rat NPY Y5 receptor (Y861 clone); test: [125I]PYY competition binding, rat Y5 Y861 clone transiently expressed in COS-7 membranes; set-up: expressed in transfected cells; host or cells: COS-7 (transient), membranes; conditions: read-out: NPY Y5 binding affinity Ki, RAT Y861 Clone, transient COS-7 membranes, ± SEM
Protocol: as §2, §1

Substance: (2-36)NPY [r/h(2-36)NPY]
- IC50 [1]: 47 nM
- IC50 [2]: > 1000 nM

Substance: (3-36)NPY [p(3-36)NPY]
- IC50 [3]: 2.2 nM
- IC50 [4]: 3.6 ± 0.4 nM
- IC50 [5]: 0.67 nM
- IC50 [1]: 45 nM
- Ki [6]: 10.4 ± 2 nM
- IC50 [2]: > 1000 nM

Substance: (3-36)NPY [r/h(3-36)NPY]
- Ki [7]: 3.5 ± 0.4 nM
- Ki [8]: 1.4 ± 0.4 nM
- Ki [6]: 3.8 ± 0.48 nM
- Ki [9]: 0.49 nM
- EC50 [10]: 6 nM
- Ki [11]: 2.1 nM

Substance: (3-36)PYY [r(3-36)PYY]
- Ki [7]: 4.5 ± 0.7 nM
- Ki [6]: 10 ± 3.4 nM

Substance: (10-36)NPY [r/h(10-36)NPY]
- IC50 [3]: 34 nM
- Ki [7]: 14 ± 2.7 nM
- IC50 [4]: 35 nM
- IC50 [5]: 0.42 nM
- IC50 [1]: 148 nM
- Ki [8]: 15 ± 4.7 nM
- Ki [6]: 110 nM
- Ki [9]: 4.9 nM
- IC50 [2]: > 1000 nM
- Ki [11]: 34 ± 2.8 nM

Substance: (18-36)NPY [p(18-36)NPY]
- Ki [8]: 61 ± 13 nM
- Ki [9]: 194 ± 88 nM
- IC50 [2]: 159 nM

Substance: (20-36)NPY [r/h(20-36)NPY]
- Ki [7]: 429 ± 133 nM
- Ki [8]: 108 ± 16 nM
- Ki [6]: > 1000 nM
- Ki [9]: 330 ± 31 nM
- Ki [11]: 587 nM

Substance: (22-36)NPY [r/h(22-36)NPY]
- Ki [7]: > 900 nM
- IC50 [5]: 0.89 nM
- Ki [8]: > 930 nM
- Ki [6]: > 1000 nM
- Ki [9]: > 1000 nM
- Ki [11]: > 1000 nM

Substance: (26-36)NPY [r/h(26-36)NPY]
- Ki [7]: > 900 nM
- IC50 [5]: 84 nM
- Ki [8]: > 930 nM
- Ki [6]: > 1000 nM
- Ki [9]: > 1000 nM
- Ki [11]: > 1000 nM

Substance: (Leu^31Pro^34)(3-36)NPY [(LP)(3-36)NPY]
- Ki [7]: 3.1 ± 0.6 nM
- EC50 [10]: 23 ± 11 nM

Substance: (Leu^31Pro^34)PYY [h(LP)PYY]
- Ki [7]: 1.3 ± 0.1 nM

Substance: Neuropeptide Y [r/hNPY]
- IC50 [2]: > 1000 nM

Positions count from the first letter of the chain named.
